Assay results: PubChem BioAssay AID624288 (National Center for Advancing Translational Sciences (NCATS), 2012)
This is a selection; strong and weak results do not stand in their true shares. Results filed as inconclusive are left out. The source made the active and inactive calls. The call rests on the fitted dose curve; cell line not stated here.

Assay: qHTS for Antagonists of gsp, the Etiologic Mutation Responsible for Fibrous Dysplasia/McCune-Albright Syndrome: qHTS; further: nearly all actives have a fitted effect of over 65% in size
Conditions: gsp-mutant cells, cAMP HTRF, 30 min; at 76.9 µM (top of the series) unless noted
On the % scale 0 is the no-effect control and ±100 the full control effect.

SMILES | activity change, negative = inhibition
CCc1nc2c(n1)c1c(non1O)c1c2no[n+]1[O-] | inactive: -15.6%
CCc1ccc(OP(C)(=O)Nc2cccnc2)cc1 (stereo unspecified) | inactive: 1.46%
Cc1ccc(NP(=O)(Oc2ccccc2)Oc2ccccc2)nc1 | inactive: -8.1%
CP(=O)(Oc1ccccc1)N1CCOC1=O (stereo unspecified) | inactive: 4.35%
O=C(OCCCN1CCCC1)C(O)(c1ccccc1)C1CCCCC1 (stereo unspecified) | inactive: 15.2%
COc1ccccc1OP(C)(=O)Nc1c(C)n(C)n(-c2ccccc2)c1=O (stereo unspecified) | inactive: 4.65%
CC(=O)N1C2C3N(C(C)=O)C1C1N(C(C)=O)C(C(N1C(C)=O)N3C(C)=O)N2C(C)=O | inactive: 1.18%
O=[N+]([O-])c1cccc2n[nH]nc12 | inactive: -1.66%
O=[N+]([O-])c1ncn(CCn2ncnc2[N+](=O)[O-])n1 | inactive: 2.75%
CC(C)(C)C(=O)NC(Sc1ccncn1)C(Cl)(Cl)Cl (stereo unspecified) | inactive: 11.4%
O=C(O)CNc1ccc([As](=O)(O)O)cc1 | inactive: 1.89%
O=[N+]([O-])c1cccc(NC2=NCC(CBr)S2)c1 (stereo unspecified) | inactive: 6.08%
COC(=O)C1(C)COP(=O)(Nc2ccccc2)OC1 (stereo unspecified) | inactive: 0.803%
O=P1(N(CCCl)CCCl)OCCCS1 (stereo unspecified) | inactive: 7.87%
Nc1ccc2c(ccc3cccnc32)n1.O=[N+]([O-])c1cc([N+](=O)[O-])c(O)c([N+](=O)[O-])c1 | inactive: 10.5%
CP(=O)(OC12CC3CC(CC(C3)C1)C2)OC12CC3CC(CC(C3)C1)C2 | inactive: -3.24%
O=C(Nc1cc([As](=O)(O)O)ccc1O)c1ccccc1 | inactive: 8.26%
CCOC(=O)c1ccc(NP(C)(=O)Oc2ccc(Cl)cc2)cc1 (stereo unspecified) | inactive: 11.2%
CP(=O)(OCCOc1ccccc1)OCCOc1ccccc1 | inactive: -3.14%
CP(=O)(Nc1ccc(Cl)cc1Cl)Oc1ccccc1 (stereo unspecified) | inactive: 7.43%
CCCCCCCCCCCCCCCC1C[N+](C)(C)CCOP(C)(=O)O1 (stereo unspecified) | inactive: 2.69%
Nc1cccc2ccc([As](=O)(O)O)cc12 | inactive: 0.984%
CCN(N=Nc1nonc1N)c1nonc1N | inactive: -5.33%
Cc1cc(C)cc(OP(C)(=O)Nc2cccc(C(F)(F)F)c2)c1 (stereo unspecified) | inactive: 5.99%
CCCC1OP(N)(=O)OCC1CC (stereo unspecified) | inactive: 8.8%
O=C(O)c1ccccc1[As](=O)(O)O | inactive: 14.2%

SMILES | activity change, negative = inhibition
CC(=O)Nc1ccc([As](=O)(O)O)cc1 | inactive: 11.4%
COc1ccc(OP(C)(=O)Nc2ccccc2Br)cc1 (stereo unspecified) | inactive: 8.54%
CN(C(=O)Cc1ccc(Cl)c(Cl)c1)[C@H]1CCCC[C@@H]1N1CCCC1 | inactive: 5.22%
Cc1ccc(NP(=O)(Oc2ccccc2F)Oc2ccccc2F)nc1 | inactive: 1.89%
COc1ccccc1OP(C)(=O)Nc1ccc(C)c(C)c1 (stereo unspecified) | inactive: 14.5%
CCOP(=O)(Nc1ccccc1)OCC | inactive: -0.835%
Cc1cc(SC(NC(=O)c2ccc(F)cc2)C(Cl)(Cl)Cl)ncn1 (stereo unspecified) | inactive: 6.95%
O=C(NC(Sc1ccncn1)C(Cl)(Cl)Cl)c1ccccc1 (stereo unspecified) | inactive: 12.2%
Oc1ccccc1CNc1ccccn1 | inactive: 5.7%
O=[N+]([O-])c1cc([N+](=O)[O-])c(Nc2ccccn2)c([N+](=O)[O-])c1 | inactive: -26.9%
CC(C)CC(=O)NC(Sc1ccc(Cl)cc1)C(Cl)(Cl)Cl (stereo unspecified) | inactive: -4.11%
Nc1cc(N)c2nonc2c1[N+](=O)[O-] | inactive: 5.14%
Cc1c(NP(C)(=O)Oc2ccc(C(C)C)cc2)c(=O)n(-c2ccccc2)n1C (stereo unspecified) | inactive: -1.31%
CCc1ccc(OP(C)(=O)O)cc1 | inactive: 3.31%
COc1ccccc1OP(C)(=O)Nc1ccc(C)cc1C (stereo unspecified) | inactive: 1.58%
CP(=O)(Nc1ccccn1)Oc1ccccc1 (stereo unspecified) | inactive: -1.5%
COc1ccccc1OP(C)(=O)Nc1ccc(Br)cc1 (stereo unspecified) | inactive: -0.861%
CN(C(=O)Cc1ccc(Cl)c(Cl)c1)[C@H]1CCCC[C@H]1N1CCCC1 | inactive: -2.7%
NC(=O)c1cc([N+](=O)[O-])cc([N+](=O)[O-])c1N | inactive: 3.85%
CN(C)CCOC(=O)C(O)(c1ccccc1)C1CCCC1 (stereo unspecified) | inactive: 0.857%
Clc1ccc(Cl)c(NC2=NCC(CBr)S2)c1 (stereo unspecified) | inactive: -1.11%
CN1CCCC(OC(=O)C(c2ccccc2)c2ccccc2)C1 (stereo unspecified) | inactive: 11%
Cc1ccc(OP(=O)(Nc2nccs2)Oc2ccc(C)cc2)cc1 | inactive: 6.77%
COc1ccc(OP(C)(=O)Nc2ccccn2)cc1 (stereo unspecified) | inactive: 4.82%
COc1ccccc1OP(=O)(Nc1ccc(C)cn1)Oc1ccccc1OC | inactive: 0.991%
